Values quoted from earlier work as cited in US20150030685A1.

Experiments:
[1] = 25° C. up to 80% relative humidity

Substance | Hygroscopicity [1] | Solubility in water (g/100g) (25° C.) | Solubility in water (g/100g) (40° C.)
Isomalt | low hygroscopicity | – | –
Maltitol | – | 63 | 72

Like-named read-outs stand apart in the source and are kept apart here.
